Results from PMC6274353, “The Blood-Brain Barrier Permeability of Lignans and Malabaricones from the Seeds of Myristica fragrans in the MDCK-pHaMDR Cell Monolayer Model” (Molecules, 2016).

System: MDCK-pHaMDR cell monolayer
Assay: bidirectional transport across the MDCK-pHaMDR cell monolayer (in vitro BBB model)
Conditions: for primary transport mechanism: time-dependency (30–180 min, 100 µM) and concentration-dependency (25–100 µM, 90 min) experiments

In the case of `C/C=C/c1cc(OC)c2c(c1)[C@@H](C)[C@H](c1ccc(O)c(OC)c1)O2` (racemic) [Compound 1, Dehydrodiisoeugenol], the “permeability (in words)” value (classed by Papp against caffeine and atenolol) is reported as “moderate” and the primary transport mechanism is reported as “passive diffusion”.

With `COc1cc([C@H]2O[C@@H](c3ccc(O)c(OC)c3)[C@@H](C)[C@@H]2C)ccc1O` [Compound 8, verrucosin] the primary transport mechanism was “passive diffusion”.
